The values below are quoted from earlier work in patent US8765126B2, “Methods of treating complications and disorders associated with G-CSF administration” (priority 2011, dated 2014).

For the series, the target named is T1, E-selectin (Homo sapiens, UniProt P16581).
T1 sequence (P16581 22-610): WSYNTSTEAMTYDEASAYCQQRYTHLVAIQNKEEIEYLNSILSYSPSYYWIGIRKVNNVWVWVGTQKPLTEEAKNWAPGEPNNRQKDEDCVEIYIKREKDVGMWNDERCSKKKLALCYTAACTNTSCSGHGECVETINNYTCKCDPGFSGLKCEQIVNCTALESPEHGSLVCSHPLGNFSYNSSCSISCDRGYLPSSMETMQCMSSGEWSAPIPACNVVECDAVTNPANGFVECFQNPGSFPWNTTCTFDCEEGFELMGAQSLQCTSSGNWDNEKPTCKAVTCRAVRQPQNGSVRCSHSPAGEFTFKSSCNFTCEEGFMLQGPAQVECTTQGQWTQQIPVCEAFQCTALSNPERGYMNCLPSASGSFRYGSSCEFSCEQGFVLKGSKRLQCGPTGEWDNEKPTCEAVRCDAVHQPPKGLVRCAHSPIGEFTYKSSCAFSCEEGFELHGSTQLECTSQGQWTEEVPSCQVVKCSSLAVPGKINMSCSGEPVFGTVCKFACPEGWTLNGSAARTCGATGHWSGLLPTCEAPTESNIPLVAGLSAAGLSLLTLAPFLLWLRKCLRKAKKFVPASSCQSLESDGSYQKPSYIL
To be noted: administration of SLe^x; cited from earlier work.

Take Sialyl Lewis X [SLe^x]: the “SLe^x/E-selectin interaction” value is recorded as “inhibits” and the “adhesion of neutrophils to endothelial cells” value was “blocks”.
